Article PMC4786016 (Environmental science & technology, 2015)

The chains behind the UniProt entries cited, without tags or fusion partners. Where a name states a change or a piece, a line headed by the entry shows the natural chain unless it says otherwise.
UniProt P37231: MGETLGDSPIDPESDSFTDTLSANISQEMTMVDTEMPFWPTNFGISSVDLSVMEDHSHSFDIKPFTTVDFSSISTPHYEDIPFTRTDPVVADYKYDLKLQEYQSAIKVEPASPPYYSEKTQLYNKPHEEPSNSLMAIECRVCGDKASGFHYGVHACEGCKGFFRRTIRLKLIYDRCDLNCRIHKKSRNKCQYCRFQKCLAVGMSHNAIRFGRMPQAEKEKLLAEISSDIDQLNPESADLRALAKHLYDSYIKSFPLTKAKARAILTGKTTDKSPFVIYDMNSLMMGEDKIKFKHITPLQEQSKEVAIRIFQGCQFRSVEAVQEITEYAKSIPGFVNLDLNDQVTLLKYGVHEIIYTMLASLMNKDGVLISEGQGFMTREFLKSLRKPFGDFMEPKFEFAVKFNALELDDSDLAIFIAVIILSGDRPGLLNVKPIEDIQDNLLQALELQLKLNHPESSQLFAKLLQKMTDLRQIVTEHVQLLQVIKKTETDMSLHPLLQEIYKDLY

Biological target: human PPARγ1 (Homo sapiens, UniProt P37231)

Substance: tri(2-butoxyethanol) phosphate [TBOEP]
- NOAEL: 3.6 µM
